From patent US6555692B1, “Preparation and use of bifunctional molecules having DNA sequence binding specificity” (California Institute of Technology, priority 1996, dated 2003) come the findings set out here.

One assay relates to 5′-TGGGGA-3′. As to the kind of experiment: DNase I footprint titration, pSES9hp fragment. The class given is binding.
The test system of the next assay is 5′-AGGGAATCCCT-3′. As to the kind of experiment: Quantitative DNase I footprint titration. The note with it: binding site size enlarged from 6 to 11 base pairs.
The test system of a further assay is 5′-AGGGAGTCCCT-3′. In words: Quantitative DNase I footprint titration. The note with it: single base pair β/β mismatch sequence.
Another assay has as its system 5′-AGGGAA-3′. In words: DNase I footprint titration. The note with it: hairpin conformation.

Compound `CN(C)CCCNC(=O)CCNC(=O)c1cc(NC(=O)c2cc(NC(=O)c3cc(NC(=O)c4cc(NC(=O)CCCNC(=O)c5nc(NC(=O)c6nc(NC(=O)c7nc(NC(=O)c8nccn8C)cn7C)cn6C)cn5C)cn4C)cn3C)cn2C)cn1C` [ImImImIm-γ-PyPyPyPy-β-Dp] registered a Ka with 5′-TGGGGA-3′ of 3e+07 M⁻¹.
In the case of `CN(C)CCCNC(=O)CCNC(=O)c1cc(NC(=O)c2cc(NC(=O)c3cc(NC(=O)c4cc(NC(=O)CCNC(=O)c5cc(NC(=O)c6nc(NC(=O)c7nc(NC(=O)c8nccn8C)cn7C)cn6C)cn5C)cn4C)cn3C)cn2C)cn1C` [ImImImPy-β-PyPyPyPy-β-Dp], in the assay on 5′-AGGGAATCCCT-3′, the “enhancement in binding energy, 4-β-4 versus 4-γ-4 polyamide” value turned out to be 2.1 kcal/mol. In the assay with 5′-AGGGAGTCCCT-3′, the Ka was 6.9e+08 M⁻¹.
As for `CN(C)CCCNC(=O)CCNC(=O)c1cc(NC(=O)c2cc(NC(=O)c3cc(NC(=O)c4cc(NC(=O)CCCNC(=O)c5cc(NC(=O)c6nc(NC(=O)c7nc(NC(=O)c8nccn8C)cn7C)cn6C)cn5C)cn4C)cn3C)cn2C)cn1C` [ImImImPy-γ-PyPyPyPy-β-Dp], the “association constant Ka” value with 5′-AGGGAA-3′ is given as 4×10^8.
